These are literature values, as cited in patent publication US20230128372A1, “AZD1656 FOR USE IN THE TREATMENT OF PNEUMONITIS AND/OR MYCORDITIS CAUSED BY A CORONAVIRUS” (EXCALIBUR MEDICINES LIMITED, priority 2020, published 2023).

Amino acid sequences for entries named in this document (tags omitted). A change or cut given only in a name is not applied to a line headed by its entry.
UniProt P19367, whole entry, species assumed: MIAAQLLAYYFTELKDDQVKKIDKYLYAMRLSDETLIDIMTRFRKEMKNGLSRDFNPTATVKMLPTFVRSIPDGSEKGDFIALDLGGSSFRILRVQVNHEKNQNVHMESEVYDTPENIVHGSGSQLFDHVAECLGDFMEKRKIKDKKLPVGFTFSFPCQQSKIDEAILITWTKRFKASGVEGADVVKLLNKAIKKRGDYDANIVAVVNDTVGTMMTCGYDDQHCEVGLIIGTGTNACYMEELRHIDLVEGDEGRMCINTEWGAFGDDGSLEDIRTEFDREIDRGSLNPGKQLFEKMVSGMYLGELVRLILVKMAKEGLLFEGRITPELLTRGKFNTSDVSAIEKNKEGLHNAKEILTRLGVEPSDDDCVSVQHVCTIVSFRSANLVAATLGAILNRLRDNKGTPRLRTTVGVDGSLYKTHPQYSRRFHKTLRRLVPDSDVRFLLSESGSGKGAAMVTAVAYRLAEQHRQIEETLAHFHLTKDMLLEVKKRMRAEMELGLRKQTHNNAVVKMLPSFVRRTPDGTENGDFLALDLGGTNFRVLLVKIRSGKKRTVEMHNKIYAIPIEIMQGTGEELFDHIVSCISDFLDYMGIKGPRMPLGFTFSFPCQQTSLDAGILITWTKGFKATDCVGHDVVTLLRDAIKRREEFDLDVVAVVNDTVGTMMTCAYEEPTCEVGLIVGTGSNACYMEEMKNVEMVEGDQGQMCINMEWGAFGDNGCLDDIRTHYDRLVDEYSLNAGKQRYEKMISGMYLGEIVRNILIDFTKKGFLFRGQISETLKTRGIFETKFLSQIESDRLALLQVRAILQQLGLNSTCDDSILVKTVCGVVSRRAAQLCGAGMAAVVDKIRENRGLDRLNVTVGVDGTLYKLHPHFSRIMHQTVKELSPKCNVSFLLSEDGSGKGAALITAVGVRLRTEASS
UniProt P52789: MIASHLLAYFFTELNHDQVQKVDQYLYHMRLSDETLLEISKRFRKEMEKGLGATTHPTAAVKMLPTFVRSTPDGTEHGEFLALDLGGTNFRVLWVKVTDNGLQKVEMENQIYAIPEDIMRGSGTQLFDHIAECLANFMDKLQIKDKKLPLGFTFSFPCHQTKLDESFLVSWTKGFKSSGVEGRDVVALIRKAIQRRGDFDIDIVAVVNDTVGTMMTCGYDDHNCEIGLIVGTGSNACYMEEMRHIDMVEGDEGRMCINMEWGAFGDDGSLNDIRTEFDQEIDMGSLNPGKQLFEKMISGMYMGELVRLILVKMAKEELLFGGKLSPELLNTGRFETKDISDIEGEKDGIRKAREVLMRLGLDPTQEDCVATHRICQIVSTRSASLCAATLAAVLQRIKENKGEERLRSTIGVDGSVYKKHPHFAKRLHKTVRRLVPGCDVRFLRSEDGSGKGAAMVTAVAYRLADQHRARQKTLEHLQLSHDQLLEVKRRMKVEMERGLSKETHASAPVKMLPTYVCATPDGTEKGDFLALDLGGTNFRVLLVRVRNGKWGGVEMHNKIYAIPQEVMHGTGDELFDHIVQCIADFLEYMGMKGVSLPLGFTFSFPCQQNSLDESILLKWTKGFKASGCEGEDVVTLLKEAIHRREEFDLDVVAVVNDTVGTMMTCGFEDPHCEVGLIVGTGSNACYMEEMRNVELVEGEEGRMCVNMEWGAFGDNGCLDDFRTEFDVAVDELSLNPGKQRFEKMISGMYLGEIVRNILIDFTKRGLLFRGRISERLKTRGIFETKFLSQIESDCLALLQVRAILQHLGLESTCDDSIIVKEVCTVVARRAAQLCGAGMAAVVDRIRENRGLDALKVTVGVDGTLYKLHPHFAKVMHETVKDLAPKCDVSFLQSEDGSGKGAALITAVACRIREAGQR

One series concerns the target hexokinase 1 (Homo sapiens, UniProt P19367). As to conditions: glucokinase versus hexokinase 1; cited from earlier work.
Another series concerns the target hexokinase 2 (Homo sapiens, UniProt P52789). As to conditions: glucokinase versus hexokinase 2; cited from earlier work.
For series [1] the following is noted: glucokinase versus pharmacology screening panel; cited from earlier work.
Series [2] concerns healthy volunteers and diabetic patients. To be noted: single doses up to 180 mg, multiple doses to 150 mg BID for 8 days in healthy volunteers; 200 mg daily up to 6 months in diabetic patients; cited from earlier work.

As for `COC[C@H](C)Oc1cc(Oc2cnc(C(=O)N3CCC3)cn2)cc(C(=O)Nc2cnc(C)cn2)c1` [AZD1656, 3-{[5-(Azetidin-1-ylcarbonyl)pyrazin-2-yl]oxy}-5-{[(1S)-1-methyl-2-(methyloxy)ethyl]oxy}-N-(5-methylpyrazin-2-yl)benzamide], at hexokinase 1, the “selectivity versus hexokinase 1” value is reported as > 100 fold. The “selectivity versus hexokinase 2” value on hexokinase 2 is > 100 fold. In addition, the “selectivity versus pharmacology screening panel” value in series [1] is > 100 fold. Besides, in series [2], the “clinical effects (safety)” value is on record as “no significant clinical effects other than glucose lowering were noted”.
